Yeast mating assay B: variants of the scFv Ab-14

Binding partner: SARS-CoV-2 spike HR2 peptide, sequence PDVDLGDISGINAS.

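The parent was found by panning a naive human phage display library on the peptide. This is the validation round: designs drawn from the data on random variants, tested in the same kind of assay. Their group label is 14L_En_Gen (En: ensemble of fine-tuned language models; Gen: genetic algorithm). The assay is AlphaSeq: two haploid yeast populations carry antibody and antigen on their surface. The frequency of each diploid, read from paired DNA barcodes, reflects how well the two displayed proteins bind. Read counts were normalised to the haploid input and turned into Kd by a linear fit to BCL2-family pairs of known affinity, for each replicate. Mating was done six times.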

Each scFv is VH, three GGGGS repeats, VL, as in the parent Ab-14, and differs from it in the CDRs of the light chain only.
VH: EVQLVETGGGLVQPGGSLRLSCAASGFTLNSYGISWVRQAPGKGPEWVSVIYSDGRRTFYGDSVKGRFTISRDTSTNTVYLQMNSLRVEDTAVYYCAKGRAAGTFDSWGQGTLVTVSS
VL: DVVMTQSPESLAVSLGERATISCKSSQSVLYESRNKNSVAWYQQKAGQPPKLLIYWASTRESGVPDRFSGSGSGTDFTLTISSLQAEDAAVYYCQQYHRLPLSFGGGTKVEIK

Variants are written as CDR1, CDR2 and CDR3 of the light chain (limits as in the source). Parent: KSSQSVLYESRNKNSVA, WASTRES, QQYHRLPLS.
Affinities are written as log10 Kd with Kd in nM; a lower number is a better binder.
Replicates are averaged; those with no signal do not enter the mean.
A pair that was not seen in that replicate is written "ND"; this usually means weak binding, but a binder can also be missed.
Values of this round are not directly comparable with the first-round values of the same sequences.
The authors averaged sequences with at least three values out of six and counted those with two or fewer as poor binders.
Background: pairings of all light chain designs with three empty control strains gave a value in 4% of cases (median 2.64, 5th percentile 1.59). Values in that range, when seen in few replicates, are hard to tell from nonspecific mating. For each scFv, signals with the empty controls are counted beside the result, with their mean in brackets.
Of ten entries with the parent sequence, four were seen in most replicates (averages 0.34 to 2.37), three in one and three in none, so single entries are noisy.

| # | CDR-L1 | CDR-L2 | CDR-L3 | log10 Kd (nM) by replicate | mean log10 Kd (nM) | control signals |
|---|---|---|---|---|---|---|
| 1 | TLYGLSMSMSKNKNNVA | EMSTREN | QQYDRLPLI | ND / 0.26 / 1.66 / 1.21 / ND / 1.18 | 1.08 | 0/18 |
| 2 | KLASVTGTEKVRGNNVA | EMETREQ | QQYNRLPLS | 0.80 / 0.48 / 0.35 / 0.67 / 0.25 / 0.85 | 0.57 | 0/18 |
| 3 | TISQVMNTLTRQGNNVA | DLQEREK | QQYFRLPLS | 0.95 / -0.45 / 1.57 / 0.80 / 0.63 / 0.12 | 0.60 | 0/18 |
| 4 | KLSGLMASSKFAKQNVA | ENNTREK | QQYERLPLS | ND / ND / ND / ND / ND / ND | ND | 0/18 |
| 5 | KVSSFMRGLMMRKDSIA | DNETRSN | QQYDRLPLS | 0.84 / 0.82 / 0.90 / 0.55 / 0.69 / 1.03 | 0.80 | 0/18 |
| 6 | KISQMVRVGATHSNSIA | EEVTRAK | QQYHRLPLA | 0.72 / 1.26 / 1.51 / 1.66 / 1.51 / 1.51 | 1.36 | 1/18 (1.58) |
| 7 | TISGVMMQMSHSKNNVA | EVSMRLD | QQYVRLPLE | 0.82 / 0.67 / 0.69 / 0.62 / 0.39 / 1.07 | 0.71 | 0/18 |
| 8 | MISQLTNMGTFAINSVA | QASVRNE | QQYDRLPLQ | 0.93 / 0.36 / 0.85 / 1.01 / 0.85 / 1.54 | 0.92 | 1/18 (2.03) |
| 9 | KIGLTLNTLMHQKNNVA | DLVTREN | QQYHRLPLS | 0.19 / -0.10 / -0.08 / 0.09 / -0.08 / -0.16 | -0.02 | 2/18 (1.92) |
| 10 | KVSEFMRGLMSRKDSIA | DNTTRNN | QQYDRLPLS | 1.20 / 1.53 / 1.40 / 1.57 / 1.14 / 2.00 | 1.47 | 1/18 (1.83) |
| 11 | TISMVMNHMTREKNNVA | NMDMREQ | QQYDRLPLS | -0.07 / 0.22 / 0.68 / 0.62 / -0.11 / 0.30 | 0.27 | 0/18 |
| 12 | KISYLQNQTFEQSNNVA | EMVTRAK | QQYNRLPLS | 0.60 / 0.51 / 0.56 / 0.15 / 0.13 / 0.45 | 0.40 | 0/18 |
| 13 | IVSQLMLWGMHAKNSIA | EAEMRTN | QQYERLPLF | ND / ND / ND / ND / 2.00 / ND | 2.00 | 0/18 |
| 14 | HITYGMMLAGRHSSSIA | QAEERAK | QQYDRLPLS | 1.22 / 0.95 / 1.12 / 0.94 / 1.19 / 1.66 | 1.18 | 0/18 |
| 15 | MMSQVTLQGTRHRNNVA | QTSTREP | QQYDRLPLI | 1.14 / 0.87 / 1.10 / 1.02 / 0.79 / 1.12 | 1.01 | 2/18 (2.43) |
| 16 | KLSMFAHVETGVKNNVA | QMETREP | QQYDHLPLS | 0.56 / 0.60 / 0.32 / 0.14 / 0.24 / 0.56 | 0.40 | 2/18 (2.20) |
| 17 | IVSQLMLWGWHAKNSIA | EAQTRVN | QQYDRLPLF | ND / ND / ND / ND / ND / ND | ND | 0/18 |
| 18 | MISQLMNMGQFAINSVA | QASERSN | QQYDRLPLM | 2.44 / ND / ND / 1.93 / 2.54 / 2.77 | 2.42 | 0/18 |
| 19 | KIGATLNQLYEKANNVA | DLVEREN | QQYHRLPLS | 0.23 / 0.28 / -0.14 / -0.02 / -0.16 / 0.08 | 0.05 | 1/18 (2.07) |
| 20 | KVYQGINTHLGAHNSIA | QEETRLE | QQYAHLPLS | 1.59 / 0.79 / 0.92 / 1.87 / 1.13 / 2.30 | 1.43 | 0/18 |
| 21 | TIGQTLMAGIRNRSNVA | EVSERLN | QQYDRLPLI | 2.03 / 1.72 / 2.49 / 2.68 / 2.11 / 2.02 | 2.18 | 0/18 |
| 22 | MISQVMNTLTRNGNNVA | DLAEREN | QQYFRLPLS | ND / ND / ND / ND / ND / ND | ND | 0/18 |
| 23 | MLSMVTEGMRRKHNSVA | DNSTRES | QQYDRLPLS | 2.67 / 3.56 / 2.74 / ND / 2.57 / 2.39 | 2.79 | 0/18 |
| 24 | HITYGMMVHGRHGSSIA | QAEERAK | QQYDRLPLI | 1.13 / 1.29 / 1.70 / 1.57 / 1.99 / 1.84 | 1.59 | 2/18 (3.76) |
| 25 | KVSEFMRGLMMRQDSIA | DNVTRNN | QQYDRLPLS | ND / ND / 1.99 / ND / ND / ND | 1.99 | 0/18 |
| 26 | KLGMTLNAEMMKKNNVA | DLVYREN | QQYHRLPLS | 0.08 / 0.16 / 0.03 / -0.21 / 0.08 / 0.88 | 0.17 | 0/18 |
| 27 | NIYQAMHTLMQAKNNVA | DVTNRQK | QQYNRLPLS | 0.12 / 0.00 / -0.34 / -0.51 / -0.07 / 0.07 | -0.12 | 1/18 (2.57) |
| 28 | HMSMLTLSGMRHTNSVA | QMTTRVN | QQYDRLPLT | 0.17 / 0.00 / -0.22 / 0.77 / 0.34 / 0.84 | 0.31 | 0/18 |
| 29 | MISQILNMGSFAINSVA | QASLRNE | QQYDRLPLA | ND / ND / ND / ND / ND / ND | ND | 0/18 |
| 30 | KISQMIRVGSTHSNSIA | EEVTRMK | QQYHRLPLS | 1.25 / 1.15 / 0.82 / 0.94 / 0.95 / 0.87 | 0.99 | 2/18 (3.53) |
| 31 | IVTQLMLWGWHAKNSIA | EAEMRTN | QQYDRLPLI | 1.26 / 2.22 / 1.91 / ND / 1.70 / 1.72 | 1.76 | 0/18 |
| 32 | QLSMITGHQLMSKDNVA | EMETREN | QQYDRLPLS | 1.49 / 1.16 / 1.36 / 1.32 / 1.16 / 2.19 | 1.44 | 3/18 (2.64) |
| 33 | TISQMTSQFSQSINNVA | EVSTREK | QQYDRLPLS | 0.39 / 0.19 / 0.39 / 0.19 / 0.24 / 0.42 | 0.30 | 1/18 (2.90) |
| 34 | SIGGAMKSLSAHRNSVA | DMTNREN | QQYDRLPLS | 0.70 / 0.83 / 0.20 / 0.72 / 0.79 / 0.88 | 0.69 | 2/18 (2.64) |
| 35 | TVTQMAMTGMKNKRSVA | NATTREP | QQYHRLPLI | 1.91 / 2.39 / 1.31 / 1.47 / 1.66 / 1.47 | 1.70 | 1/18 (1.62) |
| 36 | MISQLYNMGSFAINSVA | QASVRNE | QQYDRLPLM | 1.54 / ND / 2.02 / 1.38 / 3.12 / ND | 2.01 | 0/18 |
| 37 | KLSMVTGHMSMSKDNVA | EMETREY | QQYDRLPLS | 1.51 / 1.78 / 0.99 / 1.59 / 2.61 / 1.33 | 1.63 | 1/18 (2.75) |
| 38 | TISELHNQALGTRNNVA | NNQTRED | QQYDRLPLS | ND / 2.55 / ND / ND / ND / 3.88 | 3.22 | 0/18 |
| 39 | NIYQAMHTLSQNRNNVA | DVNERGQ | QQYFRLPLS | -0.19 / -0.07 / 0.25 / -0.19 / -0.14 / -0.05 | -0.06 | 0/18 |
| 40 | KVSEFMRGLMMRKDNIA | DNNTRQN | QQYDRLPLS | 1.25 / 1.96 / 1.28 / 0.80 / 1.63 / 1.97 | 1.48 | 0/18 |
| 41 | KISQMVKVGATHNNSIA | EEQTRAK | QQYHRLPLS | 1.43 / 1.62 / 1.53 / 0.98 / 0.92 / 1.19 | 1.28 | 1/18 (2.52) |
| 42 | KLVNFMNRGTHHTSNIA | DAQNRDD | QQYARLPLA | 0.43 / 0.39 / 0.36 / 0.10 / -0.18 / 0.40 | 0.25 | 0/18 |
| 43 | MISQLYNMGQFAINSVA | QASVRNE | QQYDRLPLM | ND / 1.10 / 1.50 / 1.43 / 2.49 / 1.19 | 1.54 | 0/18 |
| 44 | HMSMLSLQGQRHRNSVA | QMTTRVN | QQYDRLPLI | 1.48 / 1.25 / 1.46 / 1.28 / 1.44 / 1.83 | 1.46 | 2/18 (2.84) |
| 45 | KLTNVTGTEKVKGNNVA | EMETRER | QQYNRLPLA | 0.02 / 0.08 / -0.04 / 0.24 / 0.17 / 0.22 | 0.12 | 0/18 |
| 46 | HITMGMYVSGRYKSNIA | QAETRES | QQYDRLPLI | 1.38 / 1.17 / 1.06 / 1.05 / 1.37 / 1.41 | 1.24 | 0/18 |
| 47 | TISGTLMFGMRNRSNVA | EVSERLN | QQYDRLPLF | ND / 2.59 / 1.94 / ND / 2.62 / 3.16 | 2.58 | 0/18 |
| 48 | TISGVMMQMSHSKNNVA | EVSMRLE | QQYFRLPLE | 0.77 / 0.61 / 1.25 / 0.96 / 1.02 / 0.90 | 0.92 | 0/18 |
| 49 | HMSMLTLMGQRHRNSVA | QMTTRVN | QQYDRLPLA | ND / ND / ND / ND / ND / ND | ND | 0/18 |

Extract of 6 entries:

{"CDR-L1": "TISMVMNHMTREKNNVA", "CDR-L2": "NMDMREQ", "CDR-L3": "QQYDRLPLS", "log10 Kd (nM) by replicate": "-0.07 / 0.22 / 0.68 / 0.62 / -0.11 / 0.30", "mean log10 Kd (nM)": "0.27", "control signals": "0/18"}
{"CDR-L1": "HMSMLSLQGQRHRNSVA", "CDR-L2": "QMTTRVN", "CDR-L3": "QQYDRLPLI", "log10 Kd (nM) by replicate": "1.48 / 1.25 / 1.46 / 1.28 / 1.44 / 1.83", "mean log10 Kd (nM)": "1.46", "control signals": "2/18 (2.84)"}
{"CDR-L1": "TISQMTSQFSQSINNVA", "CDR-L2": "EVSTREK", "CDR-L3": "QQYDRLPLS", "log10 Kd (nM) by replicate": "0.39 / 0.19 / 0.39 / 0.19 / 0.24 / 0.42", "mean log10 Kd (nM)": "0.30", "control signals": "1/18 (2.90)"}
{"CDR-L1": "MISQLYNMGSFAINSVA", "CDR-L2": "QASVRNE", "CDR-L3": "QQYDRLPLM", "log10 Kd (nM) by replicate": "1.54 / ND / 2.02 / 1.38 / 3.12 / ND", "mean log10 Kd (nM)": "2.01", "control signals": "0/18"}
{"CDR-L1": "KVYQGINTHLGAHNSIA", "CDR-L2": "QEETRLE", "CDR-L3": "QQYAHLPLS", "log10 Kd (nM) by replicate": "1.59 / 0.79 / 0.92 / 1.87 / 1.13 / 2.30", "mean log10 Kd (nM)": "1.43", "control signals": "0/18"}
{"CDR-L1": "MMSQVTLQGTRHRNNVA", "CDR-L2": "QTSTREP", "CDR-L3": "QQYDRLPLI", "log10 Kd (nM) by replicate": "1.14 / 0.87 / 1.10 / 1.02 / 0.79 / 1.12", "mean log10 Kd (nM)": "1.01", "control signals": "2/18 (2.43)"}

From the AlphaSeq antibody data of Li et al. 2023 (doi:10.1038/s41467-023-39022-2), copy in the FLAb collection.